Results taken from patent publication EP4205733B1, “COMPOSITION FOR THE TREATMENT OF OSTEOPENIA AND OSTEOPOROSIS” (MIVELL S.R.L.S., priority 2021, dated 2023).

Conditions: at high concentrations

For orthosilicic acid, the “stability of the molecule” value was “very unstable”.
